The numbers were not newly measured in patent US9480685B2, “Abuse-resistant controlled-release opioid dosage form” (Purdue Pharma L.P., priority 2001, dated 2016), which cites them from elsewhere.

In this series the test system is opioid receptors. To be noted: injected (or snorted) in humans.

Take `C=CCN1CC[C@]23c4c5ccc(O)c4O[C@H]2C(=O)CC[C@@]3(O)[C@H]1C5` [naloxone]: the “amount that blocks the opioid receptors / antagonizes the opioid effect” value is 0.2 to 0.4 mg.
